These results are taken from US20220023389A1, “VASODILATORS FOR USE IN THE TREATMENT OF A RETINAL ISCHEMIC DISORDER” (University of Copenhagen, priority 2018, published 2022).

Where two headings read alike, the source gives them in different places.

Data set [1] deals with ciliary artery. In words: Ciliary artery diameter by fundus imaging, ET-1 induced retinal ischemia. The class given is in vivo, Sprague dawley rat. How it is done:
(§1) Rats were anesthetized with 90 mg/kg ketamine & 10 mg/kg xylazine (i.p). Oxybuprocain 0.4% Anesthetic was applied topically to the eyes.
(§2) Guided under a stereoscopic microscope to avoid lens and retinal injury, 5 μl intravitreal injection of 500 uM ET-1 (Phoenix Pharmaceuticals, Inc.) was performed using a digital controller and UltraMicroPump III, with NanoFil 10 μl syringe (WPI) connected to intraoucular injector with a 34 g bevelled needle.
(§3) Injection was performed through the sclera, inserted approximately 1 mm posterior to the corneal limbus at a 45° angle to avoid contact with the lens capsule and direct the contents, 1.5 mm into the vitreous chamber, in the right eye (FIG. 1). The needle remained in the vitreous cavity for 30 seconds after injection and was then gently withdrawn. A cotton swab was then placed on the injection site to prevent withdrawal of injected solution, and the eye ball was gently massaged to help with the distribution of compound through the vitreous. Antibiotic ointment was applied in the conjunctival sac after the intravitreal injections. The contralateral eye was used as the control eye.
Fundus imaging was performed to document any changes to the retina or vasculature. Animals recover on the heating plate and returned to the stables once awake and resuming normal behavior. The rats are tested according to the following schedule.
(§4) Day 0—ET-1 is administered intravitreally alone or in combination with the current invention. Fundus is recorded before and after injection. Day 3—Animals are anesthetized to perform ERG Measures Day 21—Animals are anesthetized to perform ERG Measures
(§5) Treatment Regimes • A) intravitreal 5 μl PBS (vehicle) 10 min before ET-1 • B) intravitreal 5 μl CGRP (200 μM) 10 min before ET-1 • C) intravitreal 5 μl SNP (500 μM) 10 min before ET-1 • D) topical application 10 μl CGRP (200 μM) before ET-1

Data set [2] has as its system retina (photoreceptors, bipolar cells). The class given is in vivo, Sprague dawley rat. How it is done: as §1, §2, §3, §4, §5
After overnight dark adaptation for at least 12 hours, the animals were anesthetized with 90 mg/kg ketamine and 10 mg/kg xylazine delivered by a single intraperitoneal injection. Then, oxybuprocaine anesthetic was applied topically to the eyes and the pupils dilated with Mydriacyl and Metaoxedrin under dim red-light illumination. The body temperature was maintained with a heating pad set to 37° C. Using a Ganzfeld stimulator, white light flashes (0.0002-100 cd-s/m2) were produced under scotopic conditions. ERGs were recorded from both eyes simultaneously with a gold wire electrode loops, placed on the corneal apex, with a drop of saline applied to the corneal surface for hydration during the testing procedure. A reference electrode was placed in the mouth and a ground electrode inserted sub dermally in the tail of the animal. The scotopic A-wave amplitude and B-wave amplitude were recorded and evaluated.

For data set [3] the following is noted: microvascular vasodilator; cited from earlier work.
The conditions of data set [4]: in vivo; cited from earlier work.
Where [5] appears, read: day 21, applied intravitreally 10 min before ET-1 (5 μL 500 μM).
[6] abbreviates: day 21, applied topically (10 μL 200 μM) before intravitreal ET-1.

For Calcitonin gene-related peptide [CGRP], the “ciliary artery diameter, increase from baseline” value in data set [1] (applied intravitreally (CGRP 5 μL 200 μM; SNP 5 μL 500 μM), before the injection of ET-1) is 61±12%. Further, the “dilation of the ciliary artery” value in data set [1] (applied topically to the eye of a Sprague dawley rat, FIG. 5) was “more than 20%”. Also, the “ciliary artery diameter above baseline after applying ET-1” value in data set [1] (eye pretreated intravitreally 10 min before intravitreal ET-1 (5 μL 500 μM)) came out at 9±15%. Moreover, in data set [1] (topical 10 μL 200 μM, visualized after the injection of intravitreal ET-1), the “ciliary artery diameter, increase from baseline” value worked out at 102±21%. In addition, the “effect on retinal function / protection against ET-1 induced ischemia” value in data set [2] (ERG after ET-1 induced ischemia) is given as “strong protective effect”. Besides, in data set [2] (setting [5]), the B-wave amplitude was determined as 1181±202 μV and the “average A-wave amplitude” value came out at 545±45 μV. In data set [2] (setting [6]), the B-wave amplitude worked out at 1088±411 μV and the “average A-wave amplitude” value was 511±100 μV. Also, the observable side effects entry in data set [2] (rat, in vivo) is listed as “without observable side effects”. In addition, in data set [3], the “vasodilator potency relative to other vasodilators such as ACh (greater)” value is recorded as 10-100 times and the “vasodilator potency relative to the most potent prostaglandins (higher)” value was roughly 10 fold. Besides, the half-life entry in data set [4] is recorded as “less than 30 minutes”.
